Test results taken from US9532519B2, “Plant growth regulator and use thereof” (Japan Science and Technology Agency, priority 2006, dated 2017).

Test system: Arabidopsis
Assay: Effect of concentration of oxidized glutathione on growth of Arabidopsis
Assay type: in vivo
Conditions: 5 mM GSSG
Protocol: The influence of concentration of oxidized glutathione on growth of Arabidopsis was examined. Specifically, soil filled in a pod of approximately 65 in width, 65 in depth, and 50 in height was immersed in 0 mM-, 0.01 mM-, 0.2 mM-, 1 mM-, 2 mM-, and 5 mM-GSSG solutions. Seeds of Arabidopsis were sown in such a manner that approximately three seeds existed in each pod, and the seeds were observed chronologically 3 weeks after the sowing.

With oxidized glutathione [GSSG] the “growth of Arabidopsis at high concentration” value was “the growth of Arabidopsis was greatly prevented and much of Arabidopsis withered”.
